According to patent US6602853B1, “Antigenic peptides reacting with anti-ovary antibodies” (Bio Merieux, priority 1996, dated 2003):

Tests used:
[1] = system: anti-β-FSH monoclonal antibodies 22A3G7; 5H3E8; experiment: Recognition by anti-β-FSH monoclonal antibodies 22A3G7 and 5H3E8; assay type: binding; conditions: antibodies immunoreactive with metrodine and ovarian extracts
anti-ovary antibodies = experiment: Recognition by serums containing anti-ovary antibodies; assay type: binding
[2] = system: anti-β-FSH monoclonal antibody 7G5A1; experiment: Reaction with anti-β-FSH monoclonal antibody 7G5A1; assay type: binding; conditions: antibody only recognizing metrodine
[3] = system: anti-ovary antibodies (AOA); experiment: ELISA on 30 patient sera: correlation of serum reactivity toward crude ovarian antigen and toward each peptide (Example 2); assay type: binding, human; conditions: 30 sera from patients, compared among antigens
Method: The concentration of molecules to be adsorbed was determined by checkerboard experiments for each antigen. It is about 1 μg per well.
The binding of the antigens to the solid phase is performed in one night at +4° C. in the amount of 100 μl per well of the solution of antigen in carbonate-bicarbonate buffer. The plate is emptied. The sites of the solid phase still unoccupied are saturated on incubation for one hour at 37° C. with 200 μl per well of 5% powdered milk reconstituted in PBS.
The samples to be tested are diluted in PBS to which 0.5% BSA and 0.2% Tween 20 have been added: dilution to 1/50 for the search for anti-ovary and anti-corpus luteum antibodies. The plate is emptied and washed 3 times in PBS. The samples are distributed in the amount of 100 μl per well. The plate is incubated for 45 minutes at 37° C.
The anti-isotypes are diluted in the same solution that was used for the dilution of the samples:
The plate is again emptied and washed 3 times in PBS. Then the anti-isotypes are distributed in the amount of 100 μl per well. […]
After 3 further washings of the plate, 100 μl of developer solution are distributed into each well. […] The plate is read on the spectrophotometer at 492 nm using the Multiskan II reader.
The results are firstly expressed as optical density (O.D.) then calculated as ratios relative to a control sample at the limit of positivity. […]

FSH: follicle stimulating hormone (FSH or gonadotrophin A); FSH (Metrodine®, Serono)
recognition by anti-β-FSH monoclonal antibodies 22A3G7; 5H3E8 [1]: recognized | recognition by serums containing anti-ovary antibodies (anti-ovary antibodies): recognized | reaction with anti-β-FSH monoclonal antibody 7G5A1 [2]: recognizing | correlation between reactivity of sera toward ovarian antigen and toward the antigen tested, in words [3]: same results as those obtained for the peptide SEQ ID No.1
